Experimental data from patent publication US20130012527A1, “PREQ1 RIBOSWITCHES AND METHODS AND COMPOSITIONS FOR USE OF AND WITH PREQ1 RIBOSWITCHES” (YALE UNIVERSITY, priority 2007, published 2013).

Tested on: M1 RNA (80 queC, cytidine 34 replaced with uridine)
Assay: In-line probing analysis of 80 queC mutant M1
Assay type: binding, B. subtilis
Conditions: M1 (C34U)

Nc1nc2nc[nH]c2c(=O)[nH]1 [guanine]
structure modulation (200 μM): No structure modulation is observed
binding to M1 RNA (in words): no binding
